# Assay results taken from PubChem BioAssay AID504414 (Broad Institute, 2011).
# This is a selection; strong and weak results do not stand in their true shares. The source made the active and inactive calls.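 The calls were made as follows: active = highest replicate inhibition of at least 40%; inactive = the rest.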
# Biological target: Golgi-associated PDZ and coiled-coil motif-containing protein (Homo sapiens) (UniProt Q9HD26)
# Test: CAL PDZ peptide-binding inhibitors, primary screen, biochemical, fluorescence polarization, Cer-tagged CAL PDZ, HTS (AID 504414);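 also: plate controls were DMSO neutral control wells for no effect and unlabeled competitor peptide control wells for full effect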
# Conditions: purified CAL PDZ, TMR-peptide fluorescence polarization, 1 h; at 20 µM; hits give high values
row,Compound,inhibition
1,Cc1ccccc1CN(C)C(=O)COC(=O)C(O)(c1ccccc1)c1ccccc1,inactive: 0.0319%
2,C[C@H]1OP(=O)(Oc2ccccc2)C[C@@H]2O[C@@H]21 (stereo not given in full),inactive: -0.581%
3,C[C@@H]1C=CCP(=O)(Oc2ccccc2)O1 (stereo not given in full),inactive: 0.829%
4,CC(=O)c1ccc(N2CC2c2ccncc2)cc1 (stereo not given),inactive: -3.03%
5,N#C/C(=C\c1ccc(N(CCBr)CCBr)cc1)C(N)=O,inactive: -1%
6,COC(=O)C1(C)COP(=O)(NCc2ccccc2)OC1 (stereo not given),inactive: -0.866%
7,CC(=O)Nc1ccc([As](=O)(O)O)c(O)c1,inactive: -1.7%
8,CC(=O)Nc1ccc(Oc2c([N+](=O)[O-])cc([N+](=O)[O-])cc2[N+](=O)[O-])cc1,inactive: 0.16%
9,O=P1(Nc2nc3ccc(Cl)cc3s2)COc2ccccc2O1 (stereo not given),inactive: 0.381%
10,CCOc1ccc(C2=NCC(CBr)S2)cc1 (stereo not given),inactive: -1.03%
11,CC(C)(C)C(=O)NC(Sc1ccccc1)C(Cl)(Cl)Cl (stereo not given),inactive: -0.273%
12,CCc1cc(O)c([N+](=O)[O-])c(C)c1[N+](=O)[O-],inactive: 0.093%
13,O=C(OC1CN2CCC1CC2)c1ccccc1 (stereo not given),inactive: -0.704%
14,CCC(=O)N1C2C3N(C(=O)CC)C1C1N(C(=O)CC)C(C(N1C(=O)CC)N3C(=O)CC)N2C(=O)CC,inactive: -0.536%
15,COC(=O)c1cc2c(s1)N=C(c1ccccc1)N(C)P2(=O)N1CCOCC1 (stereo not given),inactive: -1.07%
16,Cc1ccc(OP(=O)(Nc2ccccn2)Oc2ccc(C)cc2)cc1,inactive: -0.409%
17,CC(=O)NC(SC(=S)N(CC(C)C)CC(C)C)C(Cl)(Cl)Cl (stereo not given),inactive: -0.215%
18,CC(NC(=O)COC(=O)C(O)(c1ccccc1)c1ccccc1)c1ccccc1 (stereo not given),inactive: -0.364%
19,Cc1ccccc1OP(=O)(Nc1ccccn1)Oc1ccccc1C,inactive: -0.556%
20,O=c1c2cc([N+](=O)[O-])ccc2[nH]c2c([N+](=O)[O-])cc([N+](=O)[O-])cc12,inactive: 0.149%
21,CN(C)C(=O)Oc1noc2ccccc12,inactive: 0.698%
22,c1ccc(-c2nn[nH]n2)c(-c2nn[nH]n2)c1,inactive: 0.031%
23,Cc1ccc(NP(=O)(Oc2cccc(C)c2)Oc2cccc(C)c2)nc1,inactive: -3.09%
24,CCNC(=S)/N=C(\N)N[N+](=O)[O-],inactive: -0.279%
25,O=P1(N(CCCl)CCCl)OCCC2CCCCN21 (stereo not given),inactive: -1.14%

row,Compound,inhibition
1,O=[As](O)(c1ccccc1)c1ccc(O)cc1,inactive: 1.42%
2,O=[N+]([O-])c1ncn(CCn2cnc([N+](=O)[O-])n2)n1,inactive: 0.192%
3,CC(=O)NC(SC(=S)N(C)C)C(Cl)(Cl)Cl (stereo not given),inactive: -0.279%
4,O=[N+]([O-])c1ccc(O)c(/C=N/Nc2ccc([N+](=O)[O-])cc2[N+](=O)[O-])c1,inactive: -0.721%
5,O=C(OC1CN2CCC1CC2)c1cccc(Cl)c1 (stereo not given),inactive: -0.275%
6,C(Cc1nn[nH]n1)Cc1nn[nH]n1,inactive: -0.233%
7,Nc1ccc([As](=O)(O)c2ccc([N+](=O)[O-])cc2)cc1,inactive: -3.12%
8,CN(C)C1(CNC(=O)c2ccc(Cl)c(S(N)(=O)=O)c2)CCCCC1,inactive: -0.848%
9,O=P(Nc1ccccn1)(c1ccc(Br)cc1)c1ccc(Br)cc1,inactive: -0.443%
10,COc1ccc(N)c([N+](=O)[O-])c1[N+](=O)[O-],inactive: 0.162%
11,O=P(Nc1nc2ccccc2s1)(c1ccccc1)c1ccccc1,inactive: -2.54%
12,C[C@H]1OP(=O)(Oc2ccccc2)[C@H](O)[C@H](O)[C@H]1N=[N+]=[N-] (stereo not given in full),inactive: -0.862%
13,O=P(Nc1nccs1)(c1ccccc1)c1ccccc1,inactive: -0.899%
14,CC(C)C(=O)NC(Sc1ccccc1)C(Cl)(Cl)Cl (stereo not given),inactive: 0.00673%
15,c1nnnn1CCn1cnnn1,inactive: -0.77%
16,CCN(/C(=N/P(=O)(N1CCOCC1)N1CCOCC1)N1CCOCC1)c1ccc(OC)cc1,inactive: -2.76%
17,Nc1ccc([As](=O)(O)c2ccc(N)cc2)cc1,inactive: -0.978%
18,C[N+]1=C2C=CC=CC=C2SC12C([N+](=O)[O-])=CC([N+](=O)[O-])=C[C-]2[N+](=O)[O-] (stereo not given),inactive: 0.111%
19,CC1CCN(C(=O)Oc2c(Cl)cc(Cl)c3cccnc23)CC1,inactive: -1%
20,CC(C)=N/N=C(\N)N[N+](=O)[O-],inactive: 0.564%
21,CN(C)C(=O)OCCc1n(C)cc[n+]1C,inactive: -1.7%
22,COc1ccc(C2=NCC(CBr)S2)cc1 (stereo not given),inactive: -0.0786%
23,Cc1ccc(NP(=O)(Oc2ccccc2)Oc2ccccc2)nc1,inactive: -0.216%
24,O=[N+]([O-])c1cc([N+](=O)[O-])c(CCNc2ccccc2)c([N+](=O)[O-])c1,inactive: -0.559%
25,CCc1nc2c(n1)c1c(non1O)c1c2no[n+]1[O-],inactive: -2.19%

row,Compound,inhibition
1,O=[N+]([O-])c1cccc2n[nH]nc12,inactive: 0.767%
2,O=[N+]([O-])c1ncn(CCn2ncnc2[N+](=O)[O-])n1,inactive: -0.916%
3,CC(C)(C)C(=O)NC(Sc1ccncn1)C(Cl)(Cl)Cl (stereo not given),inactive: -1.8%
4,O=C(O)CNc1ccc([As](=O)(O)O)cc1,inactive: -1.15%
5,COC(=O)C1(C)COP(=O)(Nc2ccccc2)OC1 (stereo not given),inactive: -0.429%
6,O=[N+]([O-])c1cccc(NC2=NCC(CBr)S2)c1 (stereo not given),inactive: 0.43%
7,O=P1(N(CCCl)CCCl)OCCCS1 (stereo not given),inactive: -0.315%
8,O=C(Nc1cc([As](=O)(O)O)ccc1O)c1ccccc1,inactive: 0.284%
9,Nc1cccc2ccc([As](=O)(O)O)cc12,inactive: -2.12%
10,CCN(N=Nc1nonc1N)c1nonc1N,inactive: -0.924%
11,O=P(Nc1nc2ccc(Cl)cc2s1)(c1ccccc1)c1ccccc1,inactive: -2.27%
12,CC(=O)Nc1ccc([As](=O)(O)O)cc1,inactive: -4.11%
13,O=C(O)c1ccccc1[As](=O)(O)O,inactive: -1.59%
14,CCCC1OP(N)(=O)OCC1CC (stereo not given),inactive: -0.262%
15,Cc1cc(SC(NC(=O)c2ccc(F)cc2)C(Cl)(Cl)Cl)ncn1 (stereo not given),inactive: -0.593%
16,CCOP(=O)(Nc1ccccc1)OCC,inactive: -0.0186%
17,CN(C(=O)Cc1ccc(Cl)c(Cl)c1)[C@H]1CCCC[C@@H]1N1CCCC1,inactive: 0.118%
18,Cc1ccc(NP(=O)(Oc2ccccc2F)Oc2ccccc2F)nc1,inactive: 1.28%
19,Oc1ccccc1CNc1ccccn1,inactive: -1.66%
20,O=C(NC(Sc1ccncn1)C(Cl)(Cl)Cl)c1ccccc1 (stereo not given),inactive: -0.0934%
21,Nc1cc(N)c2nonc2c1[N+](=O)[O-],inactive: 0.265%
22,CC(C)CC(=O)NC(Sc1ccc(Cl)cc1)C(Cl)(Cl)Cl (stereo not given),inactive: -1.66%
23,CN(C(=O)Cc1ccc(Cl)c(Cl)c1)[C@H]1CCCC[C@H]1N1CCCC1,inactive: 0.804%
24,Cc1ccc(N/C(=N/P(=O)(N2CCOCC2)N2CCOCC2)N2CCOCC2)cc1,inactive: -1.84%
25,NC(=O)c1cc([N+](=O)[O-])cc([N+](=O)[O-])c1N,inactive: -4.62%

row,Compound,inhibition
1,CN1CCCC(OC(=O)C(c2ccccc2)c2ccccc2)C1 (stereo not given),inactive: 0.307%
2,Clc1ccc(Cl)c(NC2=NCC(CBr)S2)c1 (stereo not given),inactive: -0.822%
3,COc1ccccc1OP(=O)(Nc1ccc(C)cn1)Oc1ccccc1OC,inactive: 0.667%
4,O=[N+]([O-])c1cc(Oc2ccc([N+](=O)[O-])cc2C(F)(F)F)cc([N+](=O)[O-])c1,inactive: 0.0447%
5,COc1ccc(N/C(=N/P(=O)(N2CCOCC2)N2CCOCC2)N2CCOCC2)cc1,inactive: -0.415%
6,Cc1c2c(nc3ccccc13)SC(C(Cl)Cl)C2 (stereo not given),inactive: -1.47%
7,Cc1cc(=O)[nH]c(N[N+](=O)[O-])n1,inactive: -2.63%
8,O=P1(N(CCCl)CCCl)OCCCN1CCCl (stereo not given),inactive: -0.62%
9,O=P1(N(CCCl)CCCl)Nc2ccccc2N1,inactive: 0.544%
10,COc1ccc2nc(NP(=O)(c3ccccc3)c3ccccc3)sc2c1,inactive: -0.737%
11,COc1cc(I)ccc1[As](=O)(O)O,inactive: -0.528%
12,ClCCSc1nnc(-c2cccnc2)o1,inactive: -0.303%
13,COC(=O)C1(C)COP(=O)(N2CCCCCC2)OC1 (stereo not given),inactive: -0.875%
14,CC(C)c1ccc(OP(=O)(Nc2ccccn2)Oc2ccccc2F)cc1 (stereo not given),inactive: -1.03%
15,CC(C)NC(=O)NP(=O)(Oc1ccccc1)Oc1ccccc1,inactive: -0.31%
16,O=C(OC1CN2CCC1CC2)c1cccc2[nH]cnc12 (stereo not given),inactive: 0.863%
17,CCN(CC)C(=S)SC(NC=O)C(Cl)(Cl)Cl (stereo not given),inactive: -0.672%
18,O=[N+]([O-])c1cc([N+](=O)[O-])c(-c2ccn[nH]2)s1,inactive: -0.797%
19,C[As](=O)(O)c1cccc(C(=O)O)c1,inactive: -0.653%
20,O=[As](O)(c1ccc(O)cc1)c1ccccc1O,inactive: -0.875%
21,O=[N+]([O-])c1ccc(-c2cc([N+](=O)[O-])c(O)c([N+](=O)[O-])c2)cc1,inactive: -0.507%
22,COc1cc(C(=O)NCC2(N3CCOCC3)CCCCC2)ccc1OCC(C)C,inactive: -0.115%
23,Cc1ccc(OP(=O)(Nc2ccc([N+](=O)[O-])cn2)Oc2ccc(C)cc2)cc1,inactive: -0.783%
24,Cc1ccc2nc3c(c(C)c2c1)CC(C(Cl)Cl)S3 (stereo not given),inactive: -1.09%
25,CCOC(=O)Nc1cccc([As](=O)(O)O)c1,inactive: -0.515%
